# Reference: patent US6054435A, “6-O-substituted macrolides having antibacterial activity” (priority 1999, dated 2000)
# Tested on: Streptococcus Pneumonia 5979
# Experiment: in vitro antibacterial activity (MIC), agar dilution
# Type: cell-based
# Conditions: organism code ZZ; BHI agar, 35-37° C., 20 to 24 hours; unit assumed
# Experimental: Representative compounds of the present invention were assayed in vitro for antibacterial activity as follows: Twelve petri dishes containing successive aqueous dilutions of the test compound mixed with 10 mL of sterilized Brain Heart Infusion (BHI) agar (Difco 0418-01-5) were prepared. Each plate was inoculated with 1:100 (or 1:10 for slow-growing strains, such as Micrococcus and Streptococcus) dilutions of up to 32 different microorganisms, using a Steers replicator block. The inoculated plates were incubated at 35-37° C. for 20 to 24 hours. In addition, a control plate, using BHI agar containing no test compound, was prepared and incubated at the beginning and end of each test.
# An additional plate containing a compound having known susceptibility patterns for the organisms being tested and belonging to the same antibiotic class as the test compound was also prepared and incubated as a further control, as well as to provide test-to-test comparability. Erythromycin A was used for this purpose.
# After incubation, each plate was visually inspected. The minimum inhibitory concentration (MIC) was defined as the lowest concentration of drug yielding no growth, a slight haze, or sparsely isolated colonies on the inoculum spot as compared to the growth control.
structure (smiles),measurement,value
"CC[C@H]1OC(=O)[C@H](C)[C@@H](O[C@H]2C[C@@](C)(OC)[C@@H](O)[C@H](C)O2)[C@H](C)[C@@H](O[C@@H]2O[C@H](C)C[C@H](N(C)C)[C@H]2O)[C@](C)(O)C[C@@H](C)C(=O)[C@H](C)[C@@H](O)[C@]1(C)O [Ery. A, Erythromycin A, reference compound]",MIC,> 128 µg/mL
